How the values were obtained:
Assay type in all cases: physicochemical
[1] = Chemical stability: HMWP formation by SEC-MS; conditions: 250 μM, pH 7.4, 37° C., 4 weeks
Experimental: The aim of this study is to determine the chemical stability of GIP derivative compositions. As a measure of stability of the GIP derivative composition, the formation of high molecular weight peptide formation (% HMWP) as a function of time was analysed by size-exclusion chromatography (SEC-MS). Further, the purity loss of the GIP derivative compositions was measured by LCMS. Samples for chemical stability assays were freshly prepared before each assay. […] The pH of the sample was adjusted to the desired value using appropriate amounts of concentrated NaOH and HCl. […] Formation of covalent oligomers (HMWPs) was analysed and identified by a SEC-MS method. […] The LC system was coupled to both a TUV detector operated at 215 nm, 10 Hz and a high resolution QToF mass spectrometer from Waters (Synapt G2S) operated in positive ion mode and m/z range of 100 to 4000 with normal resolution setting. Lock mass correction against Leu-Enkephalin was done every 31 sec. Spectra were processed in MassLynx version 4.1 and MaxEnt deconvoluted.

[2] = Chemical stability: purity loss by LCMS; conditions: 250 μM, pH 7.4, 37° C., 4 weeks
Experimental: The aim of this study is to determine the chemical stability of GIP derivative compositions. As a measure of stability of the GIP derivative composition, the formation of high molecular weight peptide formation (% HMWP) as a function of time was analysed by size-exclusion chromatography (SEC-MS). Further, the purity loss of the GIP derivative compositions was measured by LCMS. Samples for chemical stability assays were freshly prepared before each assay. […] The pH of the sample was adjusted to the desired value using appropriate amounts of concentrated NaOH and HCl. […] The column oven was kept at 55° C. […] The solvents were pumped from a binary solvent manager system and mixed on the high pressure side in a mixer with a volume of 50 μl. The gradient and flow can be seen in table 4: A Flow-through-needle auto sampler at 8° C. was used to inject 1 μl of each sample. The effluent passed through a tuneable UV detector (TUV) tuned to 215 nm. The outlet from the UV detector passed to the electrospray source of the mass spectrometer. The capillary was held at 3 kV and dry nitrogen gas was purged at a flow of 750 l/h and a temperature of 250° C. The source block was kept at 120° C. and the large bore cone was flushed with nitrogen at 50 l/h with standard electrode potentials on the rest of the instrument. The MS was operated in high resolution mode with a nominal resolution of 35000. The ToF analyser was operated in ADC mode with an m/z window from 100-2000.

[3] = Dynamic Light Scattering Stability Index (DLS-SI); conditions: 250 μM, pH 7.4, 4 weeks at 25° C.
[4] = ThT fibrillation assay (physical stability); conditions: 250 μM, pH 7.4, 37° C., 45 hours of incubation
Experimental: The Thioflavin T assay was performed as outlined in Schlein (2017), AAPS J, 19(2), 397-408.
Low physical stability of a peptide may lead to amyloid fibril formation, which is observed as well-ordered, thread-like macromolecular structures in the sample, which eventually may lead to gel formation. This has traditionally been measured by visual inspection of the sample. However, that kind of measurement is very cumbersome and depending on the observer. Therefore, the application of a small molecule indicator probe is much more advantageous. Thioflavin T (ThT) is such a probe and has a distinct fluorescence signature when binding to fibrils [Naiki et al. (1989) Anal. Biochem. 177, 244-249; LeVine (1999) Methods. […]
Here, F is the ThT fluorescence at the time t. The constant t0 is the time needed to reach 50% of maximum fluorescence. The two important parameters describing fibril formation are the lag-time calculated by t0−2τ and the apparent rate constant kapp 1/τ. […]
Incubation, shaking and measurement of the ThT fluorescence emission were done in a Fluoroskan Ascent FL fluorescence platereader (Thermo Labsystems). […] Fluorescence measurement was done using excitation through a 444 nm filter and measurement of emission through a 485 nm filter. […]
Each run was initiated by incubating the plate at the assay temperature for 10 min. The plate was measured every 20 minutes for a desired period of time. […]

Substance	HMWP formation (%/month) [1]	Purity loss (%/month) [2]	DLS-SI Dimensionless [3]	DLS-SI precipitates [3]	ThT Assay Lag time [4]
N{1}-acetyl,N{Epsilon-24}-[(4S)-4-carboxy-4-[[(4S)-4-carboxy-4-[[(4S)-4-carboxy-4-[[4-[(19-carboxynonadecanoylamino)methyl]cyclohexanecarbonyl]amino]butanoyl]-amino]butanoyl]amino]butanoyl]-[D-Tyr1,Nle14,Arg18,Aib20,Lys24]-hGIP(1-31) [Compound 25]	0.40 %/month	2.00 %/month			
N{1}-acetyl,N{Epsilon-24}-[(4S)-4-carboxy-4-[[(4S)-4-carboxy-4-[[(4S)-4-carboxy-4-[[4-[(19-carboxynonadecanoylamino)methyl]cyclohexanecarbonyl]amino]butanoyl]-amino]butanoyl]amino]butanoyl]-[D-Tyr1,Nle14,Arg18,Glu20, Lys24]-hGIP(1-31) [Compound 23]	0.40 %/month	1.60 %/month	1.7	No	>45 h
N{1}-acetyl,N{Epsilon-24}-[(4S)-4-carboxy-4-[[(4S)-4-carboxy-4-[[(4S)-4-carboxy-4-[[(4S)-4-carboxy-4-[[4-[(19-carboxynonadecanoylamino)methyl]cyclohexanecarbonyl]amino]butanoyl]amino]butanoyl]amino]butanoyl]amino]butanoyl]-[D-Tyr1,Nle14,Arg18,Lys24]-hGIP(1-31) [Compound 30]	0.10 %/month	1.14 %/month	1.1	No	>45 h
